Antibody variant affinities, Ab-14 heavy chain, assay B

From the AlphaSeq antibody data of Li et al. 2023 (doi:10.1038/s41467-023-39022-2), copy in the FLAb collection.

The target is the same throughout: PDVDLGDISGINAS, from the HR2 region of SARS-CoV-2 spike.

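The parent was found by panning a naive human phage display library on the peptide. Designed CDR sequences, proposed from the first random library and measured here. Several design methods are mixed in this list. In AlphaSeq, yeast of one mating type display the scFv and yeast of the other type display the target. The frequency of each diploid, read from paired DNA barcodes, reflects how well the two displayed proteins bind. The ratio of observed to expected reads was calibrated, replicate by replicate, on BCL2-family standards whose Kd was known from biolayer interferometry. There are six technical replicates.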

The variants keep the light chain, the linker and the frameworks of Ab-14 (scFv order VH, three GGGGS repeats, VL).
VH: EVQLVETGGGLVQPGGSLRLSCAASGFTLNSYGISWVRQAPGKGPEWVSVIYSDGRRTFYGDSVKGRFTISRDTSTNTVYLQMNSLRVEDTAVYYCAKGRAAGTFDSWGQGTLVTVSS
VL: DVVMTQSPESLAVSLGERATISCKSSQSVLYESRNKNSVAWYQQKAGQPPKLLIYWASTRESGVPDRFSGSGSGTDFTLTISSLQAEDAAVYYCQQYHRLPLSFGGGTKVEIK

The parent's heavy chain CDRs are GFTLNSYGIS, VIYSDGRRTFYGDSVK, GRAAGTFDS; each variant's own CDRs replace them letter for letter. Variants here have at most six changes. Values are apparent Kd, the geometric mean of the replicates that gave a signal; lower means stronger binding. An entry "nd" has no value in the source: the pair was not observed among the diploids in any replicate. This suggests poor binding but is not conclusive. A sequence that the file lists under several names has all its replicates pooled. A sequence measured in both rounds can read differently, since the two assays cover different ranges. Three control strains display no target. For all heavy chain designs, 1% of the pairings with them gave a signal, with a median of 120 nM and one signal in twenty below 7.0 nM, so weak values seen in few replicates may be background. Of ten entries with the parent sequence, four were seen in most replicates (averages 2.2 nM to 240 nM), three in one and three in none, so single entries are noisy. The authors averaged sequences with at least three values out of six and counted those with two or fewer as poor binders.

For GFTLNDYGIS / VIYSDGRRTFYGDSVK / GREAGTFIS, the assay gave nd (0 of 6 replicates).
For GFTLTEYGIS / VIYSDGRRTFYTDSVK / GRFAGTFDS, the assay gave 6.2 nM (6 of 6 replicates).
For GFNLNSYGIS / VIYSDGRRTAYGDSVK / GSAAGTFDS, the assay gave nd (0 of 6 replicates).
For GFTLNSYGIS / VIYSDGRRTFYKDSVK / GTLAGTFDS, the assay gave nd (0 of 6 replicates).
For GFDLNSYGIS / VIYSDGRRTFYGDSVK / GRTAATFNS, the assay gave nd (0 of 6 replicates).
For GFSLNEYGIS / VIYSDGRRTFYIDSVK / GREAGTFDS, the assay gave 400 pM (6 of 6 replicates).
For GFTLNSYGIS / VIYSDGFRTFYGDSVK / GYAAGTFHS, the assay gave nd (0 of 6 replicates).
For GFDLNSYGIS / VIYSDGRRTFYVDDVK / GRLAGTFDS, the assay gave 3.4 nM (6 of 6 replicates).
For GFSLNSYGIS / VIYSDGRRTFYTDSVK / GRMAGTFDS, the assay gave 3.3 nM (6 of 6 replicates).
For GFTLNDYGIS / VIYSDGRRTFYGDSVK / GKAAGTFWS, the assay gave nd (0 of 6 replicates).
For GFTLNEYGIS / VIYSDGRRTFYGDSVK / GEAAGTFDT, the assay gave 1.9 nM (6 of 6 replicates).
For GFSLNQYGIS / VIYSDGRRTQYIDSVK / GRAAGTFDS, the assay gave 1.7 nM (6 of 6 replicates).
For GFDLNEYGIS / VIYSDGRRTFYGDSVK / GRNAGTFDS, the assay gave 250 pM (6 of 6 replicates).
For GFNLNSYGIS / VIYSDGRRTFYQDRVK / GQTAGTFDS, the assay gave 130 nM (3 of 6 replicates).
For GFTLNSYGIS / VIYADGRRTFYGDSVK / GRAALTFDS, the assay gave nd (0 of 6 replicates).
For GFNLNSYGIS / VIYSDGRRTFYADSVK / GNAAGTFDS, the assay gave 5.0 nM (5 of 6 replicates).
For GQNLNSYGIS / VIYSDGRRTSYGDSVK / GRAQGTIDS, the assay gave nd (0 of 6 replicates).
For GFTLNDYGIS / VIYSDGRRTQYIDDVK / GRAAGTFDS, the assay gave 46 nM (6 of 6 replicates).
For GFSLNSYGIS / VIYSDGRRTFYADHVK / GEAAGTFDK, the assay gave 3.7 nM (6 of 6 replicates).
For GFTLNSYGIS / VIYSDGHRTFYADSVK / GQLAGTFDS, the assay gave 6.1 nM (6 of 6 replicates).
For GFTLNSYGIS / VIYSDGRRTRYDDSVK / GQLAGTFDS, the assay gave 130 nM (1 of 6 replicates).
For GFSLNNYGIS / VIYSDGKRTFYGDSVK / GRTAGTFDS, the assay gave 4.1 nM (6 of 6 replicates).
For GFELNEYGIS / VIYSDGRRTFYGDSVK / GKQAGTFDS, the assay gave 420 pM (6 of 6 replicates).
For GFTLNSYGIS / VIYSDGLRTFYGDEVK / GRNAGTFDQ, the assay gave nd (0 of 6 replicates).
For GFELNSYGIS / VIYSDGRRTAYCDSVK / GRAAGTFDS, the assay gave 19 nM (6 of 6 replicates).
For GFWLNNYGIS / VIYSDGRRTAYGDSVK / GRAAGTFDS, the assay gave 72 nM (5 of 6 replicates).
For GFCLNSYGIS / VIYRDGRRTFYSDSVK / GRAAGTFRS, the assay gave 21 nM (1 of 6 replicates).
For LFTLESYGIS / VIYADGRRTFYGDSVK / GRAAGTFDS, the assay gave 38 nM (6 of 6 replicates).
For GFTLNDYGIS / VLYSDHRRTFYGDSVK / GRAALTFIS, the assay gave nd (0 of 6 replicates).
For GFVLNNYGIS / VIYSDGRRTFYGDSVK / GRTAGTFDS, the assay gave 1.3 nM (4 of 6 replicates).
For GYTLNEYGIS / VIYSDGRRTFYTDSVK / GRTAGTFDS, the assay gave 14 nM (6 of 6 replicates).
For GFTLADYGIS / VIYSDGRRTFYGDSVK / GRAAGTFDS, the assay gave 11 nM (23 of 24 replicates).
For GFWLDSYGIS / VIYSDGRRTFYGDSVK / HRRAGGFLS, the assay gave 57 nM (1 of 6 replicates).
For GFTLNDYGIS / VIYSDGRRTFYIDSVK / GRTAGTFIS, the assay gave nd (0 of 6 replicates).
For GFYLNEYGIS / VIYSDGRRTFYGDSVK / GHAAGTFDK, the assay gave 27 nM (1 of 6 replicates).
For GFTLRDYGIS / VIYSDGRRTQYIDSVK / GRAAGTFDS, the assay gave nd (0 of 6 replicates).
For GFTLNSYGIS / VIYSDGRRTFYGDSVK / GRAALTFDS, the assay gave 5.2 nM (1 of 6 replicates).
For GFTLNSYGIS / VIYADGRRTFYGDAVK / GRAAGTFKS, the assay gave nd (0 of 6 replicates).
For GFSLNQYGIS / VIYSDGRRTFYGDSVK / GRNAGTFDS, the assay gave 1.1 nM (6 of 6 replicates).
For GFTLNDYGIS / VIYSDGRRTFYGDSVK / GRQAGTFES, the assay gave 18 nM (6 of 6 replicates).
For KFTLAEYGIS / VIYSDGRRTFYGDSVK / GTAAGTFDS, the assay gave nd (0 of 6 replicates).
For GFTLNSYSIS / VIYSDGRRTAYGDSVK / GRAAGTFDV, the assay gave nd (0 of 6 replicates).
For GFSLNSYGIS / VIYSDGRRTFYGDSVK / GKAAGRFLS, the assay gave nd (0 of 6 replicates).
For GFSLNSYGIS / VIYSDGRRTFYGDSVK / GWQAGTFDS, the assay gave 27 nM (6 of 6 replicates).
For GFTLNEYGIS / VIYSDGRRTFYGDSVK / GRAAGTFKI, the assay gave nd (0 of 6 replicates).

The first 5 entries again:

With GFTLNDYGIS / VIYSDGRRTFYGDSVK / GREAGTFIS the result was nd (0 of 6 replicates).
With GFTLTEYGIS / VIYSDGRRTFYTDSVK / GRFAGTFDS the result was 6.2 nM (6 of 6 replicates).
With GFNLNSYGIS / VIYSDGRRTAYGDSVK / GSAAGTFDS the result was nd (0 of 6 replicates).
With GFTLNSYGIS / VIYSDGRRTFYKDSVK / GTLAGTFDS the result was nd (0 of 6 replicates).
With GFDLNSYGIS / VIYSDGRRTFYGDSVK / GRTAATFNS the result was nd (0 of 6 replicates).